Results as given in US20220002458A1, “ACRYLATE COPOLYMERS FOR GALENIC APPLICATIONS” (JOHANNES GUTENBERG-UNIVERSITÄT MAINZ, priority 2018, published 2022).

Solubility pH 2 (pH 2): − | Solubility pH 3 (pH 3): − | Solubility pH 4 (pH 4): − | Solubility pH 5 (pH 5): − | Solubility pH 6 (pH 6): + | Solubility pH 7 (pH 7): +
Substance: Poly(methacrylic acid-co-methyl methacrylate) 1:1 [Eudragit ® L 100]
